Literature values as cited in patent US20260382649A1, “TREATMENT OF ASCT2-DEPENDENT CANCERS” (published 2026).

System: human tumor cells

Compound	effect on the growth of human tumor cells
C[C@H]1O[C@@H](O[C@H]2[C@@H](O)C[C@H](O[C@H]3[C@@H](O)C[C@H](O[C@H]4CC[C@@]5(C)[C@H](CC[C@@H]6[C@@H]5CC[C@]5(C)[C@@H](C7=CC(=O)OC7)CC[C@]65O)C4)O[C@@H]3C)O[C@@H]2C)C[C@H](O)[C@@H]1O	inhibitory effect
CO[C@H]1C[C@H](O[C@H]2CC[C@@]3(C)[C@H](CC[C@@H]4[C@@H]3CC[C@]3(C)[C@@H](C5=CC(=O)OC5)[C@@H](OC(C)=O)C[C@]43O)C2)O[C@@H](C)[C@@H]1O	inhibitory effect
